{"source": "patent US20260382612A1", "about": "“ANTI CANCER COMBINATIONS COMPRISING TARGETED THERAPY” (published 2026)", "key": {"[1]": {"test_system": "Human KRAS G12D mutation positive AsPC-1 pancreatic cancer cell line-derived xenograft", "experiment": "In vivo combination therapy in AsPC-1 xenograft mice (Example B)", "details": "Table 4, Example 1 30 mg/kg i.v. QW, Afatinib 12.5 mg/kg p.o. QD, Everolimus 5 mg/kg p.o. QD, monotherapy with the other solvent"}, "[2]": {"test_system": "Human KRAS G12D mutation positive GP5d colorectal cancer cell line-derived xenograft", "experiment": "In vivo combination therapy in GP5d xenograft mice (Example D)", "details": "Table 6, Example 1 30 mg/kg i.v. QW, Alpelisib 15 mg/kg p.o. QD, MRTX0902 50 mg/kg p.o. BID, Alisertib 10 mg/kg p.o. QD, monotherapy with the other solvent"}, "[3]": {"test_system": "Human KRAS G12D mutation positive KP-4 pancreatic cancer cell line-derived xenograft", "experiment": "In vivo combination therapy in KP-4 xenograft mice (Example A2)", "details": "Table 3, Example 1 30 mg/kg i.v. QW, Alpelisib 15 mg/kg p.o. QD, MRTX0902 50 mg/kg p.o. BID, Alisertib 10 mg/kg p.o. QD, monotherapy with the other solvent"}, "[4]": {"test_system": "Human KRAS G12D mutation positive KP-4 pancreatic cancer cell line-derived xenograft", "experiment": "In vivo combination therapy in KP-4 xenograft mice (Example A1)", "details": "Table 2, Example 1 30 mg/kg i.v. QW, Palbociclib 60 mg/kg p.o. QD, TNO155 10 mg/kg p.o. BID, monotherapy with the other solvent"}, "[5]": {"test_system": "Human KRAS G12D mutation positive HPAC pancreatic cancer cell line and human CD3-positive T cells, mixed xenograft", "experiment": "In vivo combination therapy with immune checkpoint inhibitor in mixed HPAC / CD3-positive T cell xenograft model (Example C)", "details": "Table 5, Example 1 30 mg/kg i.v. QW, Nivolumab 250 μg/head i.p. TIW, monotherapy with the other solvent"}, "[6]": {"test_system": "Human KRAS G12D mutation positive GP5d colorectal cancer cell line-derived xenograft", "experiment": "In vivo combination therapy with cetuximab in GP5d xenograft mice (Example E)", "details": "Table 7, day 21 vs day 0, Example 1 30 mg/kg i.v. QW, Cetuximab 50 mg/kg i.p. BIW, monotherapy with the other solvent"}}, "data": [{"smiles": "CO[C@H]1C[C@@H]2CC[C@@H](C)[C@@](O)(O2)C(=O)C(=O)N2CCCC[C@H]2C(=O)O[C@H]([C@H](C)C[C@@H]2CC[C@@H](OCCO)[C@H](OC)C2)CC(=O)[C@H](C)/C=C(\\C)[C@@H](O)[C@@H](OC)C(=O)[C@H](C)C[C@H](C)/C=C/C=C/C=C/1C", "values": [{"measurement": "TGI (%) after 21 days of the first treatment", "setting": "[1]", "value": 41, "unit": "%"}]}, {"smiles": "Cc1nc(NC(=O)N2CCC[C@H]2C(N)=O)sc1-c1ccnc(C(C)(C)C(F)(F)F)c1", "values": [{"measurement": "TGI (%) after 20 days of the first treatment", "setting": "[2]", "value": 16, "unit": "%"}, {"measurement": "TGI (%) after 21 days of the first treatment", "setting": "[3]", "value": "−2", "unit": "%"}]}, {"smiles": "CN(C)C/C=C/C(=O)Nc1cc2c(Nc3ccc(F)c(Cl)c3)ncnc2cc1O[C@H]1CCOC1", "values": [{"measurement": "TGI (%) after 21 days of the first treatment", "setting": "[1]", "value": 40, "unit": "%"}]}, {"smiles": "COc1cc(Nc2ncc3c(n2)-c2ccc(Cl)cc2C(c2c(F)cccc2OC)=NC3)ccc1C(=O)O", "values": [{"measurement": "TGI (%) after 20 days of the first treatment", "setting": "[2]", "value": "−3", "unit": "%"}, {"measurement": "TGI (%) after 21 days of the first treatment", "setting": "[3]", "value": "−10", "unit": "%"}]}, {"smiles": "C[C@@H]1OCC2(CCN(c3cnc(Sc4ccnc(N)c4Cl)c(N)n3)CC2)[C@@H]1N", "values": [{"measurement": "TGI (%) after 21 days of the first treatment", "setting": "[4]", "value": 90, "unit": "%"}]}, {"smiles": "Cc1ncsc1-c1ccc([C@H](CO)NC(=O)[C@@H]2C[C@@H](O)CN2C(=O)[C@H](C(C)C)n2cc(-c3ccc(COc4c(-c5c(C)c(F)cc6[nH]ncc56)c(C5CC5)cc5c(N6C[C@@H]7C[C@H]6CN7)nc(OC6CCOCC6)nc45)cc3)nn2)cc1", "values": [{"measurement": "TGI (%) after 21 days of the first treatment", "setting": "[1]", "value": 47, "unit": "%"}, {"measurement": "TGI (%) after 14 days of the first treatment", "setting": "[5]", "value": 85, "unit": "%"}, {"measurement": "TGI (%)", "setting": "[6]", "value": 55, "unit": "%"}, {"measurement": "TGI (%) after 20 days of the first treatment", "setting": "[2]", "value": 102, "unit": "%"}, {"measurement": "TGI (%) after 21 days of the first treatment", "setting": "[4]", "value": 65, "unit": "%"}, {"measurement": "TGI (%) after 21 days of the first treatment", "setting": "[3]", "value": 16, "unit": "%"}]}]}
